This is an account of results in PubChem BioAssay AID602396 (The Scripps Research Institute Molecular Screening Center, 2012).

Sequences of proteins named here, by UniProt entry; tags and fusion partners are left off.
UniProt O00482, whole entry, looked up: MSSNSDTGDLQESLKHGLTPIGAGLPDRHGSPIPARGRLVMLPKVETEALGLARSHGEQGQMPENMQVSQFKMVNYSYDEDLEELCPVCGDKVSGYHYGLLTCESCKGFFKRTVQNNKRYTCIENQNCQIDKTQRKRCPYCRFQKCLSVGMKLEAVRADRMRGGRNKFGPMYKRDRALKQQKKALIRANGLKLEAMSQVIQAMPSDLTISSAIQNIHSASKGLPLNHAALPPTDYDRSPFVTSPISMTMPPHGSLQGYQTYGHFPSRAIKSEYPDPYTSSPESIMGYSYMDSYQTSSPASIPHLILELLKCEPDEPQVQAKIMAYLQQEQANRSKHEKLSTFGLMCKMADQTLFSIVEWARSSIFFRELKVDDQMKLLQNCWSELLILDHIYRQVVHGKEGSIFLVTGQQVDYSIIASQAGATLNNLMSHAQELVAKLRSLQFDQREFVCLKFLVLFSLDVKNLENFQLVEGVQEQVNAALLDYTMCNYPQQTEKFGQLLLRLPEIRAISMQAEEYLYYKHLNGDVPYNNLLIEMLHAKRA

The term inhibition denotes the drop in the measured response relative to a control, in per cent.

The list shows a part of the results, in another mix than the full data. The source made the active and inactive calls.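 The calls were made as follows: active = inhibition above the mean inhibition of all tested compounds plus 3 SD (cut at about 73% in these data); inactive = the rest.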

This assay addresses Nuclear receptor subfamily 5 group A member 2 (Homo sapiens) (UniProt O00482). As to the kind of experiment: LRH-1 (NR5A2) inverse agonists, primary screen, cell-based, luminescence, HEK293T, StAR-luciferase reporter (AID 602396).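 Also: 0% = DMSO wells and 100% = reporter-only cells lacking LRH-1.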 To be noted: LRH-1 transfected, 24 h, at 3.6 µM, hits give high values. A general note: In a reporter assay the amount or activity of a reporter protein is the signal.
`Cc1ccc(N/C(=N/P(=O)(N2CCOCC2)N2CCOCC2)N2CCOCC2)cc1`: the inhibition was inactive: 11%.
Regarding `NC(=O)c1cc([N+](=O)[O-])cc([N+](=O)[O-])c1N`, the inhibition was inactive: -15.9%.
The same measure for `Nc1cccc2ccc([As](=O)(O)O)cc12`: inactive: -16.9%; for `CCN(N=Nc1nonc1N)c1nonc1N`: inactive: -14.2%; for `CCOP(=O)(Nc1ccccc1)OCC`: inactive: -9.4%.
As to `Cc1cc(SC(NC(=O)c2ccc(F)cc2)C(Cl)(Cl)Cl)ncn1` (stereo unspecified), the inhibition was inactive: -20.3%.
`CN(C(=O)Cc1ccc(Cl)c(Cl)c1)[C@H]1CCCC[C@@H]1N1CCCC1`: the inhibition was inactive: -4.74%.
`Cc1ccc(NP(=O)(Oc2ccccc2F)Oc2ccccc2F)nc1`: the inhibition was inactive: -6.69%.
For the compound `CN(C)P(=O)(N(C)C)n1c(Nc2ccccc2)nnc1-c1ccccc1`, the inhibition was inactive: -38.2%.
To `O=P(Nc1nc2ccc(Cl)cc2s1)(c1ccccc1)c1ccccc1` belongs inactive: -12.2%.
To `O=C(O)c1ccccc1[As](=O)(O)O` belongs inactive: 9.68%; to `CC(=O)Nc1ccc([As](=O)(O)O)cc1`, inactive: -3.59%.
To `CCCC1OP(N)(=O)OCC1CC` (stereo unspecified) belongs inactive: -7.97%.
`O=C(O)CNc1ccc([As](=O)(O)O)cc1`: the inhibition is inactive: 5.92%.
Take `O=[N+]([O-])c1cccc(NC2=NCC(CBr)S2)c1` (stereo unspecified): the inhibition was inactive: 3.02%.
Turning to `COC(=O)C1(C)COP(=O)(Nc2ccccc2)OC1` (stereo unspecified), the inhibition was inactive: -7.45%.
To `O=[N+]([O-])c1ncn(CCn2ncnc2[N+](=O)[O-])n1` belongs inactive: -8.2%; to `CC(C)(C)C(=O)NC(Sc1ccncn1)C(Cl)(Cl)Cl` (stereo unspecified), inactive: -12.3%; to `O=C(Nc1cc([As](=O)(O)O)ccc1O)c1ccccc1`, inactive: -6.39%.
`O=P1(N(CCCl)CCCl)OCCCS1` (stereo unspecified): the inhibition is inactive: 0.14%.
To `c1cc(-c2nn[nH]n2)ccc1-c1nn[nH]n1` belongs inactive: 6.36%.
`CC1CCN(C(=O)Oc2c(Cl)cc(Cl)c3cccnc23)CC1`: the inhibition is inactive: 12.2%.
To `CC(C)=N/N=C(\N)N[N+](=O)[O-]` belongs inactive: -1.47%.
To `CC(C)c1nc(Nc2ccccc2)n(P(=O)(N(C)C)N(C)C)n1` belongs inactive: 2.97%.
To `CN(C)C(=O)OCCc1n(C)cc[n+]1C` belongs inactive: 10.2%; to `CCN(/C(=N/P(=O)(N1CCOCC1)N1CCOCC1)N1CCOCC1)c1ccc(OC)cc1`, inactive: 0.68%; to `Nc1ccc([As](=O)(O)c2ccc(N)cc2)cc1`, inactive: 5.97%.
As to `C[N+]1=C2C=CC=CC=C2SC12C([N+](=O)[O-])=CC([N+](=O)[O-])=C[C-]2[N+](=O)[O-]` (stereo unspecified), the inhibition is inactive: 26.9%.
For `Cc1ccc(NP(=O)(Oc2ccccc2)Oc2ccccc2)nc1`, the inhibition is inactive: 4.3%.
To `O=[N+]([O-])c1cc([N+](=O)[O-])c(CCNc2ccccc2)c([N+](=O)[O-])c1` belongs inactive: 18.8%; to `CCc1nc2c(n1)c1c(non1O)c1c2no[n+]1[O-]`, inactive: -0.98%; to `CC(=O)N1C2C3N(C(C)=O)C1C1N(C(C)=O)C(C(N1C(C)=O)N3C(C)=O)N2C(C)=O`, inactive: 15.9%.
To `O=[N+]([O-])c1cccc2n[nH]nc12` belongs inactive: 20.7%; to `COc1ccc(C2=NCC(CBr)S2)cc1` (stereo unspecified), inactive: 11.2%; to `c1nnnn1CCn1cnnn1`, inactive: 2.72%.
To `O=P(Nc1nccs1)(c1ccccc1)c1ccccc1` belongs inactive: 8.62%; to `CC(C)C(=O)NC(Sc1ccccc1)C(Cl)(Cl)Cl` (stereo unspecified), inactive: 5.73%; to `O=C(OC1CN2CCC1CC2)c1cccc(Cl)c1` (stereo unspecified), inactive: 6.9%.
In the case of `Nc1ccc([As](=O)(O)c2ccc([N+](=O)[O-])cc2)cc1`, the inhibition is inactive: -6.9%.
`C(Cc1nn[nH]n1)Cc1nn[nH]n1`: the inhibition was inactive: -9.31%.
For `O=[As](O)(c1ccccc1)c1ccc(O)cc1`, the inhibition was inactive: 11.2%.
To `O=[N+]([O-])c1ncn(CCn2cnc([N+](=O)[O-])n2)n1` belongs inactive: 16.1%; to `CC(=O)NC(SC(=S)N(C)C)C(Cl)(Cl)Cl` (stereo unspecified), inactive: 26.1%; to `O=[N+]([O-])c1ccc(O)c(/C=N/Nc2ccc([N+](=O)[O-])cc2[N+](=O)[O-])c1`, inactive: 7.83%.
On to `O=P(Nc1nc2ccccc2s1)(c1ccccc1)c1ccccc1`, for which the inhibition is inactive: 7.67%.
The same measure for `C[C@H]1OP(=O)(Oc2ccccc2)[C@H](O)[C@H](O)[C@H]1N=[N+]=[N-]` (stereo partly specified): inactive: -11.3%; for `CN(C)C1(CNC(=O)c2ccc(Cl)c(S(N)(=O)=O)c2)CCCCC1`: inactive: -5.22%.
The same measure for `O=P(Nc1ccccn1)(c1ccc(Br)cc1)c1ccc(Br)cc1`: inactive: -1.08%.
With `Nc1ccc(CCCCOc2ccccc2)cc1`, the inhibition was inactive: -20.5%.
To `COc1ccc(N)c([N+](=O)[O-])c1[N+](=O)[O-]` belongs inactive: -0.88%; to `Cc1ccccc1OP(=O)(Nc1ccccn1)Oc1ccccc1C`, inactive: -9.14%.
As to `CC(NC(=O)COC(=O)C(O)(c1ccccc1)c1ccccc1)c1ccccc1` (stereo unspecified), the inhibition is inactive: 1.87%.
To `CN(C)C(=O)Oc1noc2ccccc12` belongs inactive: 8.81%; to `O=c1c2cc([N+](=O)[O-])ccc2[nH]c2c([N+](=O)[O-])cc([N+](=O)[O-])cc12`, inactive: 12.2%.
To `O=C(OC1CN2CCC1CC2)c1ccccc1` (stereo unspecified) belongs inactive: -17.5%.
As to `CCC(=O)N1C2C3N(C(=O)CC)C1C1N(C(=O)CC)C(C(N1C(=O)CC)N3C(=O)CC)N2C(=O)CC`, the inhibition is inactive: 11.8%.
To `COC(=O)c1cc2c(s1)N=C(c1ccccc1)N(C)P2(=O)N1CCOCC1` (stereo unspecified) belongs inactive: -0.55%; to `Cc1ccc(OP(=O)(Nc2ccccn2)Oc2ccc(C)cc2)cc1`, inactive: -12.1%.
The same measure for `CC(=O)NC(SC(=S)N(CC(C)C)CC(C)C)C(Cl)(Cl)Cl` (stereo unspecified): inactive: -13.1%; for `O=P1(N(CCCl)CCCl)OCCC2CCCCN21` (stereo unspecified): inactive: -15.1%; for `c1ccc(-c2nn[nH]n2)c(-c2nn[nH]n2)c1`: inactive: -0.83%.
The same measure for `Cc1ccc(NP(=O)(Oc2cccc(C)c2)Oc2cccc(C)c2)nc1`: inactive: -13.2%; for `O=C(NC1CCS(=O)(=O)C1)NP(=S)(Oc1ccccc1)Oc1ccccc1` (stereo unspecified): inactive: 7.55%; for `CCNC(=S)/N=C(\N)N[N+](=O)[O-]`: inactive: 4.2%.
On to `CC(=O)Nc1ccc([As](=O)(O)O)c(O)c1`, for which the inhibition was inactive: 12.9%.
The same measure for `CC(=O)Nc1ccc(Oc2c([N+](=O)[O-])cc([N+](=O)[O-])cc2[N+](=O)[O-])cc1`: inactive: 6.85%.
On to `Cc1ccccc1CN(C)C(=O)COC(=O)C(O)(c1ccccc1)c1ccccc1`, for which the inhibition is inactive: 2.52%.
To `C[C@@H]1C=CCP(=O)(Oc2ccccc2)O1` (stereo partly specified) belongs inactive: 5.17%; to `C[C@H]1OP(=O)(Oc2ccccc2)C[C@@H]2O[C@@H]21` (stereo partly specified), inactive: -17.2%; to `N#C/C(=C\c1ccc(N(CCBr)CCBr)cc1)C(N)=O`, inactive: 11.9%.
For `CC(=O)c1ccc(N2CC2c2ccncc2)cc1` (stereo unspecified), the inhibition was inactive: -9.41%.
As for `COC(=O)C1(C)COP(=O)(NCc2ccccc2)OC1` (stereo unspecified), the inhibition was inactive: 14.4%.
For `CC(C)(C)C(=O)NC(Sc1ccccc1)C(Cl)(Cl)Cl` (stereo unspecified), the inhibition is inactive: -13.4%.
To `CCc1cc(O)c([N+](=O)[O-])c(C)c1[N+](=O)[O-]` belongs inactive: -0.62%; to `O=P1(Nc2nc3ccc(Cl)cc3s2)COc2ccccc2O1` (stereo unspecified), inactive: -42.5%; to `CCOc1ccc(C2=NCC(CBr)S2)cc1` (stereo unspecified), inactive: -4.88%.
